# scFv variants of Ab-14 (heavy chain) against a SARS-CoV-2 spike peptide

Target peptide (SARS-CoV-2 spike, HR2 region): PDVDLGDISGINAS

Ab-14 is the parent antibody, in scFv form: VH, then a (GGGGS)3 linker, then VL. The light chain is unchanged in all variants.
VH: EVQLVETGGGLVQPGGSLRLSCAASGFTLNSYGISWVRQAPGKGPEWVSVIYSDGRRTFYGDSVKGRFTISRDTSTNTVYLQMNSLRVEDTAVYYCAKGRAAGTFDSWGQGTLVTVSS
VL: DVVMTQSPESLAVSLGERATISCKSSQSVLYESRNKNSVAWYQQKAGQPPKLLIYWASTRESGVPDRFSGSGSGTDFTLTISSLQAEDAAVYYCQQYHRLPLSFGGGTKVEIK

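The parent was found by panning a naive human phage display library on the peptide. Designed CDR sequences, proposed from the first random library and measured here. Several design methods are mixed in this list. AlphaSeq pools MATa yeast showing the antibodies with MATalpha yeast showing the peptide. The frequency of each diploid, read from paired DNA barcodes, reflects how well the two displayed proteins bind. Each replicate has its own calibration line, from reference interactions of the BCL2 family. There are six technical replicates.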

Variants are written as CDR1, CDR2 and CDR3 of the heavy chain (limits as in the source). Parent: GFTLNSYGIS, VIYSDGRRTFYGDSVK, GRAAGTFDS.
Variants here have more than six changes.
Values are apparent Kd, the geometric mean of the replicates that gave a signal; lower means stronger binding.
A pair that was not seen in any replicate is written "no signal"; this usually means weak binding, but a binder can also be missed.

For GFDLNEYGIS / VIYADGRRTFYIDSVK / GTNAGTFDD, the assay gave 230 pM (6 of 6 replicates). Variant GFDLDEYGIS / VIYADGRRTFYADSVK / GTLAGTFDI showed 170 pM (6 of 6 replicates). For GNNLDEYGIS / VIYADGQRTAYAQSVK / GETGDNAMT, the assay gave no signal (0 of 6 replicates). With GFDLNEYGIS / VIYADGRRTAYADSVK / GGNAGTFDV the result was 20 nM (2 of 6 replicates). For GFDLNEYGIS / VIYADGKRKAYADSVK / GENAGTFDV, the assay gave 530 pM (6 of 6 replicates). Variant GADLNEYGIS / VIYADGMRSALINSVK / GTLSGTFIA showed no signal (0 of 6 replicates).

Variant GFDLNEYGIS / VIYADGVRTFYADSVK / GNTAGTFDS showed 270 pM (6 of 6 replicates). For GFDIDEYGVS / VIYADGFREAYAESVK / GLIQFGFTV, the assay gave 35 nM (1 of 6 replicates). With GFNLNEYGIS / VIYADGQRTFYADSVK / GQVAGTFDM the result was 290 pM (6 of 6 replicates). Variant GFDLNEYGIS / VIYADGQRRAYAANFK / GVNIGGFDA showed no signal (0 of 6 replicates). For GFDLDEYGIS / VIYADGSRTAYSDSVK / GNVAGTFDI, the assay gave 540 pM (6 of 6 replicates). Variant GFDLNEYGIS / VIYADGMRTYYADSVK / GETAGTFDL showed 240 pM (6 of 6 replicates).

Variant GFDLNEYGIS / VIYADGVRTFYVDSVK / GENAGTFDV gave 670 pM (6 of 6 replicates). Variant GFDLKQYGIS / VIYADGMRAGYADNVK / GHWGGKFLV showed no signal (0 of 6 replicates). With GDVLDEYGIS / VIYADGRRTAYTQDVK / GDKAGDLSV the result was 250 nM (1 of 6 replicates). With GFDLNEYGIS / VIYADGMRTFYADSVK / GNQAGTFDM the result was 720 pM (6 of 6 replicates). With GFNLNEYGIS / VIYADGRRTFYADSVK / GGIAGTFDV the result was 310 pM (6 of 6 replicates). With GFDLAEYGIS / VIYADGMRNAYAQNFK / GYIGGTIMY the result was no signal (0 of 6 replicates).

Variant GFNLDEYGIS / VIYADGKRTFYSDNVK / GEVAGTFDI gave 390 pM (6 of 6 replicates). Variant GFDLNEYGIS / VIYADGRRTAYADSVK / GGVAGTFDV gave 55 nM (1 of 6 replicates). For GFDLEEYGIS / VIYADGRRTFYSDSVK / GEAAGTFDF, the assay gave 490 pM (6 of 6 replicates). Variant GFDLNEYGIS / VIYADGRRTYYADSVK / GNQAGTFDS gave 350 pM (5 of 6 replicates). With GFDLNEYGIS / VIYADGMRTFYADSVK / GNTAGTFDL the result was 540 pM (6 of 6 replicates). With GFNLDEYGIS / VIYADGRRTAYADSVK / GNVAGTFDV the result was 430 pM (6 of 6 replicates).

Variant GFQLDEVGIS / VIYADGARTAYKSKVK / GGNGDKFDI gave no signal (0 of 6 replicates). Variant GFSLDEYGIS / VIYADGVRTQYHPKVK / GLGGFIFDL gave no signal (0 of 6 replicates). For GFDLNEYGIS / VIYADGKRTFYSDSVK / GNEGGTFDV, the assay gave 24 nM (4 of 6 replicates). For GFDLNEYGIS / VIYADGMRTAYSDSVK / GNNAGTFDI, the assay gave 550 pM (6 of 6 replicates). Variant GMDLNEYGIS / VIYADGQRRAYAANFK / GVNIDGFDF gave no signal (0 of 6 replicates). For GFDLNEYGIS / VIYADGRRTFYIDSVK / GEIAGTFDQ, the assay gave 170 pM (6 of 6 replicates).

With GEDLMEYGIS / VIYADGVRFSYIDDVK / GNSTGFLDV the result was 53 nM (1 of 6 replicates). Variant GFDLNEYGIS / VIYADGMRTAYANSVK / GNVAGTFDI showed 490 pM (6 of 6 replicates). With GFNLDEYGIS / VIYADGMRSMYADSVK / GGISGWFFI the result was no signal (0 of 6 replicates). For GFDLNEYGIS / VIYADGRRTFYTDSVK / GEEAGTFDQ, the assay gave 960 pM (6 of 6 replicates). Variant GFDLNEYGIS / VIYADGRRTFYSDSVK / GEFAGTFDQ showed 880 pM (6 of 6 replicates). Variant GFNLNEYGIS / VIYADGVRTFYADSVK / GEHAGTFDI showed 3.8 nM (4 of 6 replicates).

Variant GFDLNEYGIS / VIYADGMRTVYADSVK / GSNAGTFDV gave 1.1 nM (6 of 6 replicates). Variant GFDINEYGIS / VIYADGRRTFYTDSVK / GNNAGTFDV gave 5.5 nM (6 of 6 replicates). Variant GFDLNEYGIS / VIYADGQRTAYADDVK / GEVAGTFDI showed 210 pM (6 of 6 replicates). Variant GFDLNEYGIS / VIYADGRRTAYADDVK / GEVAGTFDT showed 240 pM (6 of 6 replicates). For GFNLEEYGIS / VIYADGKRTKYSENVK / GHIGNVRVV, the assay gave no signal (0 of 6 replicates). Variant GFDLEDYGIS / VIYADGRRTAYADSVK / GEQAGTFDL showed 600 pM (6 of 6 replicates).

Variant GFDLNEYGIS / VIYADGRRTFYADDVK / GEVAGTFIV showed 640 pM (6 of 6 replicates). Variant GFDLNEYGIS / VIYADGLRTFYADSVK / GNAAGTFDV showed 540 pM (6 of 6 replicates). With GFDLNEYGIS / VIYADGRRTYYADSVK / GTNAGTFDV the result was 2.1 nM (6 of 6 replicates). For GFDLNEYGIS / VIYADGMRTAYIDSVK / GEVAGTFDI, the assay gave 220 pM (6 of 6 replicates). Variant GFDLNEYGIS / VIYADGVRTAYADSVK / GQVAGTFDT gave 140 pM (5 of 6 replicates).

The last 4 entries again:

{"CDR-H1": "GFDLNEYGIS", "CDR-H2": "VIYADGLRTFYADSVK", "CDR-H3": "GNAAGTFDV", "Kd (apparent)": "540 pM", "replicates with signal": "6 of 6"}
{"CDR-H1": "GFDLNEYGIS", "CDR-H2": "VIYADGRRTYYADSVK", "CDR-H3": "GTNAGTFDV", "Kd (apparent)": "2.1 nM", "replicates with signal": "6 of 6"}
{"CDR-H1": "GFDLNEYGIS", "CDR-H2": "VIYADGMRTAYIDSVK", "CDR-H3": "GEVAGTFDI", "Kd (apparent)": "220 pM", "replicates with signal": "6 of 6"}
{"CDR-H1": "GFDLNEYGIS", "CDR-H2": "VIYADGVRTAYADSVK", "CDR-H3": "GQVAGTFDT", "Kd (apparent)": "140 pM", "replicates with signal": "5 of 6"}

The range of this assay differs from that of the first round, and the authors advise against merging the two.
Nonspecific signal, from three strains lacking the peptide, appeared in 1% of pairings of all heavy chain designs, centred on 120 nM (5% of these signals below 7.0 nM); values are not corrected for it.
The authors' rule: three or more of the six replicates give a measured affinity, fewer mean a poor binder.
Of ten entries with the parent sequence, four were seen in most replicates (averages 2.2 nM to 240 nM), three in one and three in none, so single entries are noisy.

Source: Li et al. 2023 (doi:10.1038/s41467-023-39022-2), MIT Lincoln Laboratory and A-Alpha Bio; data file from the FLAb repository.